Biological target: SMARCA2 (Homo sapiens, UniProt P51531)
Assay: MSD SMARCA2 degradation in NCI-H1299 cell line
Details: NCI-H1299 cells, percentage of SMARCA2 degradation after 24 hours

Sequences of proteins named here, by UniProt entry; tags and fusion partners are left off.
UniProt P51531, whole entry: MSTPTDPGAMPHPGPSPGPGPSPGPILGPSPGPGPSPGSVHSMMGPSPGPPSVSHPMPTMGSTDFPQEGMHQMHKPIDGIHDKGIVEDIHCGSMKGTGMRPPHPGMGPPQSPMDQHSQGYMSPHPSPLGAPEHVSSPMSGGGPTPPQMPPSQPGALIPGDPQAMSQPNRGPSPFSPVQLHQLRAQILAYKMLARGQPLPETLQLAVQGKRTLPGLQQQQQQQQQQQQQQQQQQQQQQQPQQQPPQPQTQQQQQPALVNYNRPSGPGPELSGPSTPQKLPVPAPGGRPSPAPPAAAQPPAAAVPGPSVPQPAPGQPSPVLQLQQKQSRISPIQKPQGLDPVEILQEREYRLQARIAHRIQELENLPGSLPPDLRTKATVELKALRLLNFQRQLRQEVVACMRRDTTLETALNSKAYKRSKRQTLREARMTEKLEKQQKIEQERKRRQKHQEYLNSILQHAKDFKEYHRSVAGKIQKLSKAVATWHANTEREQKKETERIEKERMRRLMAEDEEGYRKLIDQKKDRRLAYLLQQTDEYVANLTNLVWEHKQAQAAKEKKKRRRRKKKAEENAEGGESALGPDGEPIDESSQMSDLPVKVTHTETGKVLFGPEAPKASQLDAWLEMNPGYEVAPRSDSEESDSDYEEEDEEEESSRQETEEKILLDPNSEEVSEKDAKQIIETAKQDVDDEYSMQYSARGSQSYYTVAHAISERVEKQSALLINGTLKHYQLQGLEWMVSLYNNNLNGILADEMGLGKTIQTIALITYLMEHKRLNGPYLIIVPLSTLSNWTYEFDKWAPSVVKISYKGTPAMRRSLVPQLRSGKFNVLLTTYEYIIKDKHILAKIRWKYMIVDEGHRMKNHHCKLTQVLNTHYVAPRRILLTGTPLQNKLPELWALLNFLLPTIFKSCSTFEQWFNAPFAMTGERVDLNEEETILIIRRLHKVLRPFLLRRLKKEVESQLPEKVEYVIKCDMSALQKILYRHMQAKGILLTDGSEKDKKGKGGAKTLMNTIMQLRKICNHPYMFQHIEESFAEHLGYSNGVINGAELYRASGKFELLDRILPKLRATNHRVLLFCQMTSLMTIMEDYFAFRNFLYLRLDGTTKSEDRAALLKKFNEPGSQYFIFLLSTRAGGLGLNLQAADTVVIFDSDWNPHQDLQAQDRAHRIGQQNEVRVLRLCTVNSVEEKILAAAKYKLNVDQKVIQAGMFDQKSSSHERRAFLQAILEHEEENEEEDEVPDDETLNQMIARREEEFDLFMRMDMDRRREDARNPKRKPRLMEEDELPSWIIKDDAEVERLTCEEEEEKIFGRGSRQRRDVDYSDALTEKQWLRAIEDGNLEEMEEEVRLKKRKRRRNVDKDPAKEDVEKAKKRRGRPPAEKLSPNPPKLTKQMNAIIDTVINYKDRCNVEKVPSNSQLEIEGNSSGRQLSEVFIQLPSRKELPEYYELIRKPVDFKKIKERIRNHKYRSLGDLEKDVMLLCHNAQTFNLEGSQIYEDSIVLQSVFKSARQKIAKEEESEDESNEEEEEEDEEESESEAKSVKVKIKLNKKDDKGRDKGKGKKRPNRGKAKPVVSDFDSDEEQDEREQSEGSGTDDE

SMARCA2 MSD H1299 degradation 24 h: Average Dmax %	Structure (SMILES)	SMARCA2 MSD H1299 degradation 24 h: Average Dmax % (tested form: HCl)
A (A (>90% degradation))	Nc1nnc(-c2ccccc2O)cc1-c1cnn(C2CCN(CCCCc3ccc4c(c3)c3cccnc3n4C3CCC(=O)NC3=O)CC2)c1 (centres unmarked)	
	Nc1nnc(-c2ccccc2O)cc1N1CC2CCC(C1)N2c1ncc(C2CCN(CCCc3ccc4c(c3)c3cccnc3n4C3CCC(=O)NC3=O)CC2)cn1 (centres unmarked)	A (A (>90% degradation))
